Some results for these compounds are left out of this collection, so the calls shown say nothing about other tests. Calls of active or inactive are those of the source.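 How the source made its calls: active means chemicals rated mutagenic or weakly mutagenic in the Salmonella bacterial test by one literature review, or positive overall by another; inconclusive means no clear call, values can overlap the other calls; inactive means the rest.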 Where a call stands in place of a potency, no number is given.

This data set relates to Salmonella typhimurium Ames mutagenicity, literature compiled. The data set is described as follows: DSSTox (CPDBAS) Carcinogenic Potency Database Salmonella Mutagenicity. An excerpt: The Carcinogenic Potency Database (CPDB) is a unique and widely used international resource of the results of over 6500 chronic, long-term animal cancer tests on over 1500 chemical substances. The CPDB provides easy access to the bioassay literature, with qualitative and quantitative analyses of both positive and negative experiments that have been published over the past 50 years in the general literature and by the National Cancer Institute/National Toxicology Program. The CPDB standardizes the diverse literature of cancer bioassays that vary widely in protocol, histopathological examination and nomenclature, and in the published author's choices of what information to provide in their papers. Results are reported in the CPDB for tests in rats, mice, hamsters, dogs, and nonhuman primates, and are based on the most positive result among all experiments for each sex-species. The DSSTox CPDBAS (all species) file incorporates data from the CPDB Summary Tables for the full list of over 1500 chemical substances tested in at least one species.
A chemical is classified within the CPDB as mutagenic, i.e. "active", in the Salmonella assay if it was evaluated overall as either "mutagenic" or "weakly mutagenic" by Zeiger [Zeiger, E. (1997) Genotoxicity Database. In: Gold and Zeiger, Eds. Handbook of Carcinogenic Potency and Genotoxicity Databases. […]

On to `N#CC(C#N)=Cc1ccccc1Cl`, for which the outcome was active.
